AlphaSeq binding of Ab-14 light chain variants to a spike HR2 peptide

Values reported by Li et al. 2023, doi:10.1038/s41467-023-39022-2 (FLAb copy).

Binding partner: SARS-CoV-2 spike HR2 peptide, sequence PDVDLGDISGINAS.

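Phage display of a naive human antibody library on the peptide gave the parent. Designed CDR sequences, proposed from the first random library and measured here. Group labels follow the data file (Ctrl: baseline library sampled from a position-specific scoring matrix, with some repeated check sequences; Rand: our label for a block that the file lists under HC and that is probably the random mutants of the ten best first-round binders; En: ensemble of fine-tuned language models; GP: Gaussian process model; HC: hill climbing; Gen: genetic algorithm; Gibbs: Gibbs sampling; a sequence that several methods proposed may carry one label only). Affinity was read by AlphaSeq, a pooled yeast mating assay with surface-displayed partners. Binding brings cells together so that they mate, and sequencing counts the barcode pairs among the diploids. A regression on co-assayed BCL2-family reference pairs converts the normalised counts of each replicate to an apparent Kd. Mating was done six times.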

Parent scFv Ab-14: VH joined to VL by the linker GGGGSGGGGSGGGGS. Changes lie in the light chain CDRs alone.
VH: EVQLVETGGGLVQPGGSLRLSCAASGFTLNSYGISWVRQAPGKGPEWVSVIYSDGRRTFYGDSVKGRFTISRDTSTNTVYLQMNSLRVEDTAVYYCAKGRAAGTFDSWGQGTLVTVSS
VL: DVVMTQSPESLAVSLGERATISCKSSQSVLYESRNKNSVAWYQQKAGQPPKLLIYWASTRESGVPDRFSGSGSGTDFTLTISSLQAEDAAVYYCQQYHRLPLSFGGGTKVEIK

Variants are written as CDR1, CDR2 and CDR3 of the light chain (limits as in the source). Parent: KSSQSVLYESRNKNSVA, WASTRES, QQYHRLPLS. The read-out is the apparent dissociation constant on a log10 scale (nM): the lower, the stronger. Averages over replicates are reported, and they cover detected replicates only. Entries are sorted by rising average.

"log10 Kd (nM), mean",detected,CDR-L1,CDR-L2,CDR-L3,group
-0.54,6 of 6,KLSQSVMYESRNKNNVA,NASTRES,QQYHRLPLS,GP_Gen
-0.46,6 of 6,KLSQSWLYESRNKNSVA,GGNTRES,QQYHRLPLS,GP_HC
-0.43,6 of 6,KLSQSFLYESRNKNSVA,NASQRES,QQYHRLPLS,GP_Gen
-0.34,6 of 6,KLSQSVLYESRNKNSVA,NASTRMD,QQYHRLPLS,GP_Gen
-0.24,6 of 6,FLSQSVLYESRNKNSVA,NASTRED,QQYHRLPLS,GP_Gen
-0.15,6 of 6,TISDVMGHMSRAHNNVA,DMDTRGE,QQYNRLPLS,En_Gen
-0.14,6 of 6,KVSQSVLYESRNQNSVA,EASTRES,QQYHRLPLS,GP_Gen
-0.14,6 of 6,KLQQSVLYESRNKNSVA,SASTRMS,QQYHRLPLS,GP_Gen
-0.10,6 of 6,KFQQSVLYESRNLNNVA,HGSTRSS,QDYHRLPLS,GP_Gibbs
0.07,6 of 6,KLSQSMEYESRNVNSVA,SASTREL,QQYHRLPLS,GP_Gibbs
0.08,6 of 6,KSSQQVLYESRNKNSVA,HASTRES,QQYGRLPLS,Ctrl
0.12,6 of 6,KLQQSCLYESRNPNSVA,NASYRSS,QQYHRLPLS,GP_Gibbs
0.12,6 of 6,KITATMRFEQKNSNNIA,EVTTRSK,QQYYRLPLS,En_Gen
0.18,6 of 6,SIMQVGGYESNAHNSIA,DLRTRES,QQYHRLPLS,En_HC
0.26,6 of 6,KSSQSVRMEELNSNSVA,HASVREQ,QQYHRLPLS,GP_Gibbs
0.28,6 of 6,NLQNIGSELSVWKNAIA,DVNIKES,QQYFRLPLL,En_Gibbs
0.31,6 of 6,KLYQSVPYESRNKNSVA,NASQRES,QQYHRLPLS,GP_Gen
0.34,6 of 6,SITQLVAYGSRNKNSVA,QMSTREE,QQYDRLPLS,En_HC
0.41,6 of 6,TISQSAVMESHNKNNVA,DLNLRGS,QQYDRLPLS,En_HC
0.42,6 of 6,KQSQSVLYESRNKNSVA,DASTRES,QQYHRLPLQ,GP_HC
0.42,6 of 6,KCSVSVLYESRNKNSVA,NAQTRES,QQYHELPLS,Ctrl
0.48,6 of 6,KLQFSWEYESRNKNSVA,SASQREV,QQYHRLPLS,GP_Gibbs
0.53,6 of 6,KSSGSVLYESNNKNSVA,GASTRQS,QQYHRLPLS,Ctrl
0.63,6 of 6,NITQQGNAMGDQRNNVA,NVETLQH,QQYAHLPLL,En_Gibbs
0.64,6 of 6,KMSQSVLYESRNKNSVA,WASTREV,QQYHRLPLS,Ctrl
0.75,6 of 6,KIGYGLTTESRNKNSVA,QTETRES,QHYHRLPLS,En_HC
0.84,6 of 6,TISQVLNTLTKVGNNVA,DLAERED,QQYFRLPLS,En_Gen
0.88,6 of 6,QFSNTNMQGNAMWHNVA,EATYAEE,QQYARLPLQ,En_Gibbs
0.90,6 of 6,TIGQVMNWESRNKNSVA,QTSEREE,QDYDRLPLS,En_HC
0.93,6 of 6,KISQMVKVGSTHSNSIA,EEETRAS,QQYHRLPLA,En_Gen
0.94,6 of 6,MLSEMMHMLGAKKNSIA,DLVERAN,QQYHRLPLE,En_Gen
0.96,6 of 6,KLSMLHWYWSRNKNSVA,EASTRLQ,QQYHRLPLS,GP_Gibbs
0.99,6 of 6,HITMGMYVSGRHHSNIA,QAETRAK,QQYDRLPLI,En_Gen
1.01,6 of 6,HFSVETMEFMAKNKNIA,EVSTTML,QQYARLPFM,En_Gibbs
1.05,6 of 6,MLTMFANENQGWSNNIA,DTNNLNE,QQYSRLPFM,En_Gibbs
1.07,6 of 6,KSSQGVVYESTNKNSVA,NASTRES,QQYHRLPLS,Ctrl
1.16,6 of 6,KQSQSVLYESRNKNSIA,DLSTRES,QQYHELPLS,Rand
1.23,1 of 6,MFSQLVYTGSRTRNAVA,QASTREN,QQYHRLPLA,En_HC
1.33,6 of 6,KIDGQRSYQGGRERAIA,DANIRFR,QQYARLPLV,En_Gibbs
1.42,6 of 6,HLLQTVMYGQTRRNSVA,HAVTREN,QQYHRLPLS,En_HC
1.59,5 of 6,KLSGSDLYESRNSNSVA,QGSTRES,QDYHRLPLS,GP_Gibbs
1.68,6 of 6,KILQTVMNETRNRNNVA,HMTTRED,QQYFRLPLS,En_HC
1.79,5 of 6,KLSQSVLYQMEQKNSVA,QASTRMS,QMYHRLPLS,GP_Gibbs
2.27,3 of 6,KVSGFMRGLMERKDSIA,DNETRQS,QQYDRLPLS,En_Gen
2.45,1 of 6,MIHEMMGLMSHKQSSIA,DNSTREE,QQYDRLPLS,En_Gen
3.62,1 of 6,KIMQSLNYEQFNVSSVA,GQETRER,QAYHRLPLS,En_HC

Excerpt, the first 5 entries:

CDR-L1,CDR-L2,CDR-L3,group,"log10 Kd (nM), mean",detected
KLSQSVMYESRNKNNVA,NASTRES,QQYHRLPLS,GP_Gen,-0.54,6 of 6
KLSQSWLYESRNKNSVA,GGNTRES,QQYHRLPLS,GP_HC,-0.46,6 of 6
KLSQSFLYESRNKNSVA,NASQRES,QQYHRLPLS,GP_Gen,-0.43,6 of 6
KLSQSVLYESRNKNSVA,NASTRMD,QQYHRLPLS,GP_Gen,-0.34,6 of 6
FLSQSVLYESRNKNSVA,NASTRED,QQYHRLPLS,GP_Gen,-0.24,6 of 6

The parent sequence was in this pool as ten entries: three were never detected, three once, and four in most replicates, with averages from 0.34 to 2.37. The authors averaged sequences with at least three values out of six and counted those with two or fewer as poor binders. Background: pairings of all light chain designs with three empty control strains gave a value in 4% of cases (median 2.64, 5th percentile 1.59). Values in that range, when seen in few replicates, are hard to tell from nonspecific mating. A sequence measured in both rounds can read differently, since the two assays cover different ranges.